Laboratory results from patent US8497240B2 (priority 2006, dated 2013).
Where “and” joins values, the source holds several entries; their conditions need not be identical. Identical values can stand only once.

Experiments:
human GIP receptor = molecular target: T1, human GIP receptor (Homo sapiens, UniProt P48546); assay type: binding; settings: HEK-GIPR; read-out: GIP RBA, IC50 in HEK-GIPR
T1 construct: expressed in transfected cells; host or cells: HEK293 (HEK-GIPR), membranes
T1 sequence (P48546 22-466): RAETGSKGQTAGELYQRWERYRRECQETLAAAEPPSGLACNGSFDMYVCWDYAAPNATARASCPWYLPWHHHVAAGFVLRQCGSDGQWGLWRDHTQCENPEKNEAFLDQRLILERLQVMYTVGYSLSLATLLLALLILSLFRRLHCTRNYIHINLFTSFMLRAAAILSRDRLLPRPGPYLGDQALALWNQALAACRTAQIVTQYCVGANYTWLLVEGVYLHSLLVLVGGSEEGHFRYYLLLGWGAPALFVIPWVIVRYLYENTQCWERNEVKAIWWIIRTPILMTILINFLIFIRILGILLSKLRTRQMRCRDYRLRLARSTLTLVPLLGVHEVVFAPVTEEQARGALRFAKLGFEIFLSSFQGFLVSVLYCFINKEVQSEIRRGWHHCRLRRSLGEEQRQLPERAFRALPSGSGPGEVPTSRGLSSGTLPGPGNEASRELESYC

[1] = Solubility at various pHs; assay type: physicochemical
[2] = Stability in human plasma (LC/MS/MS); assay type: in vitro ADME
[3] = Protease resistance with RINm5F cell membrane extracts (LC-MS); assay type: in vitro ADME; settings: 30 μM, 37° C., 6 hr
GIP Receptor = molecular target: T2, GIP Receptor (Rattus norvegicus, UniProt P43219); experiment: GIP receptor binding (GIP RBA) in RIN cells
T2 construct: endogenous in cells; host or cells: RIN cells
T2 sequence (P43219 19-455): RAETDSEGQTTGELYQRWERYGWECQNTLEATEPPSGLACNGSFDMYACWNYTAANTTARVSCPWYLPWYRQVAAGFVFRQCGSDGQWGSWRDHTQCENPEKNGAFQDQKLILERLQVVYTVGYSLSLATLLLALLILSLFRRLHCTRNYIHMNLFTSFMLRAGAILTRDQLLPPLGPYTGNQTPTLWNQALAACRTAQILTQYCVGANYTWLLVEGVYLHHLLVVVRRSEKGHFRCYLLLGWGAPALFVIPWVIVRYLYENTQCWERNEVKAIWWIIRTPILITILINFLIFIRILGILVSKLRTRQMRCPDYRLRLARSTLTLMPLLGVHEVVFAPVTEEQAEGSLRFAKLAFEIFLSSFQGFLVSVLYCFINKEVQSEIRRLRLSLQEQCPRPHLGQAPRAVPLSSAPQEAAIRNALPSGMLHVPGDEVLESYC

| Substance | IC50 (human GIP receptor) | Solubility [1] [µg/mL] | stability compared with exendin-4 [2] | protease resistance (parent peptide remaining) [3] | protease resistance (parent peptide remaining) ([3]; listed as Compound G) | pH ranges of solubility and physical/chemical stability [1] | IC50 (GIP Receptor) [pM] |
| --- | --- | --- | --- | --- | --- | --- | --- |
| [dAla2, Leu14, Ala18, glu21] GIP-(1-30)-Exendin-4 (31-39) [Compound 0601GIP4285] | 110 pM and 220 pM | <1000 |  |  |  |  |  |
| Y(D-Ala)EGTFISDYSIAMDKIHQQDFVNWLLAQKPSSGAPPPS-NH2 [Compound 0601GIP3794] |  | <1000 | at least as stable or more stable than exendin-4 | superior protease resistance | more stable than its parent molecule GIP(1-30) without the shield or the full length GIP(1-42) | solubility and physical/chemical stability are at different ranges of pH |  |
| [dAla2, Leu14, beta-Ala31, beta-Ala32] GIP-(1-32)-Exendin-4 (31-39) [Compound 0601GIP4179] |  |  |  |  |  |  | 3300 |
